From ChEMBL document CHEMBL4819022, “Discovery of JNJ-63576253: A Clinical Stage Androgen Receptor Antagonist for F877L Mutant and Wild-Type Castration-Resistant Prostate Cancer (mCRPC)” (J Med Chem, 2021)

Columns and labels:
[1] = target: Androgen receptor F877L mutant (Homo sapiens); experiment: Antagonist activity at VP16-AR F877L mutant (unknown origin) transfected in human HepG2 cells cotransfected with ARE-LUC incubated for 48 hrs in presence of AR agonist R1881 by steady-glo luciferase reporter gene assay
Androgen receptor = Androgen receptor (Homo sapiens, UniProt P10275); experiment: Antagonist activity at AR wild-type (unknown origin) transfected in human LNCAP cells cotransfected with ARE-LUC incubated for 20 to 24 hrs in presence of AR agonist R1881 by steady-glo luciferase reporter gene assay; format: cell-based
[2] = test system: Androgen receptor (Homo sapiens), P10275 [F877L]; experiment: Antagonist activity at AR F877L mutant (unknown origin) transfected in human LNCAP cells cotransfected with ARE-LUC incubated for 20 to 24 hrs in presence of AR agonist R1881 by steady-glo luciferase reporter gene assay relative to control; format: cell-based; settings: filed as antagonist, time 20-24 hrs

Row | IC50 [1] [nM] | IC50 (Androgen receptor) [nM] | SMILES | Imax [2] [%]
1 | 127 | 191 | CN1CCC(Oc2ccc(N3C(=S)N(c4cnc(C#N)c(C(F)(F)F)c4)C(=O)C34CCC4)cc2)CC1 | 
2 |  |  | N#Cc1ncc(N2C(=O)C3(CCC3)N(c3ccc(O)cc3)C2=S)cc1C(F)(F)F | > 90
